Data as given in patent US11744829B2, “Methods for treating neurological conditions and exposure to nerve agents” (dated 2023).

Tests used:
soman-exposed P12 rats = experiment: Behavioral and sIPSC outcome in P12 rats after soman exposure
[1] = system: GABAA receptor-mediated spontaneous IPSCs of BLA principal neurons; experiment: Whole-cell recording of spontaneous IPSCs in BLA slices of treated P21 rats; details: 40 second time window, +30 mV holding potential
soman-exposed P21 rats = experiment: Open field and acoustic startle response in P21 rats after soman exposure
hippocampus = experiment: Hippocampus volume in P21 rats, 30 days and 3 months after soman; details: 30 days and 3 months after exposure, LY293558 20 mg/kg, CRM 50 mg/kg
soman induced seizures = experiment: Seizure severity in P21 rats exposed to soman; details: LY293558 20 mg/kg i.m., CRM 50 mg/kg i.m., 1 h after exposure, within 120 min
[2] = system: nerve agent induced-seizures; experiment: Caramiphen given 30 or 60 minutes after soman, adult rats, behavioral seizure score; details: CRM administered 30 or 60 minutes after soman exposure
amygdala = experiment: Amygdala volume in P21 rats, 30 days and 3 months after soman; details: 30 days and 3 months after exposure, LY293558 20 mg/kg, CRM 50 mg/kg
[3] = 1 month after soman, compared to Control

Row | Molecule | suppression of seizure activity over 24 hours versus the soman only group (soman exposure; UBP302 250 mg/kg i.p.) [%] | neuronal degeneration in the subcortex, 7 days after exposure (soman exposure; administered 1 hour after soman exposure) | total duration of SE over a 24 hour period (soman exposure; treatment at 1 or 2 hours following soman) | charge transferred by GABAA receptor-mediated spontaneous IPSCs (soman-exposed P12 rats; 30 days and 3 months after soman) | development of pathophysiological and behavioral deficits (soman-exposed P12 rats; LY293558 10 mg/kg i.m., CRM 50 mg/kg i.m., 60 min after soman, 30 days and 3 months) | charge transferred by sIPSCs of BLA principal neurons ([1]; 3 month time point after soman) | charge transferred by sIPSCs of BLA principal neurons ([1]; 30 day time point after soman) [pC] | increase in anxiety 1 month after soman-induced SE (soman-exposed P21 rats; LY293558 15 mg/kg i.m., CRM 50 mg/kg i.m., 60 min after soman) | degeneration of the hippocampus (estimated volume) (hippocampus) | severity of soman induced seizures (soman induced seizures) | acoustic startle responses to 110 dB and 120 dB stimuli (soman-exposed P21 rats; [3]) | time spent in the center of the open field (soman-exposed P21 rats; [3]) | time for the behavioral seizure score to fall below stage 2 [2] [h] | degeneration of the amygdala (estimated volume) (amygdala)
1 | (S)-3-(2-carboxybenzyl)willardiine | 65 | reduced neuronal degeneration | superior to diazepam in seizure control over 24 hours |  |  |  |  |  |  |  |  |  |  | 
2 | (3S,4aR,6R,8aR)-6-[2-(1(2)H-tetrazole-5-yl) ethyl]decahydroisoquinoline-3-carboxylic acid |  |  |  | prevented the reduction in charge transferred | reduced development of pathophysiological and behavioral deficits | 627.89±119.90 pC | 359.1±53.98 | prevented increase in anxiety |  |  |  |  |  | 
3 | CCN(CC)CCOC(=O)C1(c2ccccc2)CCCC1 |  |  |  |  |  | 378.68+−40.67 pC | 201.49±30.91 |  | failing to prevent degeneration of the hippocampus | not effective in reducing seizure severity | significantly increased | significantly reduced | 1 to 2 | failing to prevent degeneration of the amygdala
